# According to patent publication US12655394B2, “Ovarian cancer organoid culture” (MAX-PLANCK-GESELLSCHAFT ZUR FÖRDERUNG DER WISSENSCHAFTEN …, priority 2018, dated 2026):
# B1: BMP2: bone morphogenetic protein, e.g. human BMP2 (RefSeq NP_001191), added exogenously to the medium (protein, UniProt P12643 283-396, looked up)
# Bone morphogenetic protein 2: QAKHKQRKRLKSSCKRHPLYVDFSDVGWNDWIVAPPGYHAFYCHGECPFPLADHLNSTNHAIVQTLVNSVNSKIPKACCVPTELSAISMLYLDENEKVVLKNYQDMVVEGCGCR
# Tested on: high-grade serous carcinoma (HGSC) 3D cultures
# Experiment: Organoid formation in HGSC 3D cultures in medium -/+ BMP2
# Type: cell-based, human
# Conditions: soluble BMP2 final concentration 10 ng/ml in growth medium; organoid counts per field view, 3 patient isolates
# Description: The plot is representative of formed organoid counts per field view from 3 different patient isolates which were cultivated in parallel in medium−/+BMP2.
# • Adv. +++: Advanced F12 Medium+HEPES (6 ml)+Glutamax (5 ml)+5% fetal calf serum (FCS) • Adv. ++: Advanced F12 Medium+HEPES (6 ml)+Glutamax (5 ml) • Cut tissue with a scissor in small pieces and then mince further with scalpel for 3-5 minutes • Collect all fragments, incubate with 2 ml Collagenase Type 1+2 ml Collagenase type II and transfer to a 6 well plate, • Incubate fragments for 45 min at 37° C. 5% CO2, • Add 5 ml Adv +++ and transfer in to a 50 ml Falcon tube, • Vortex vigorously for 30 seconds, • Let pieces settle down, take supernatant and transfer in to a fresh tube, • Add again 5 ml Adv +++, mix with a pipette, • Let pieces settle down, take supernatant and transfer in to a fresh tube, • Centrifuge for 5 min at 400 rpm, • Discard supernatant, • Prepare 10 ml Adv +++, add 30 μl Y-27632 and 10 μl hEGF (final conc. 10 ng/ml), • Resuspend cell pellet in medium, • Seed cell in a flask, • Incubate at 5% CO2 at 37° C. and grow cells 3-5 days prior to transfer to 3D culture. […]
molecule,measurement,value
B1,organoid formation efficiency / organoid growth,improves organoid growth; also recorded: clearly improved

# “Also recorded” adds a separate entry of the source.
